Data from US4433147A, “Process for preparing 10-deazaminopterins” (priority 1982, dated 1984).
Like-named read-outs stand apart in the source and are kept apart here.

Tests used:
L1210 leukemia [1] = assay: L1210 leukemia in BD (2) F1 female mice, i.p., 10-alkyl derivatives (Example 9, Table II); details: every two days times five
carrier in tumor = assay: membrane transport by carrier in tumor; format: cell-based; details: dAM and MTX
L1210 leukemia [2] = assay: L1210 leukemia in BD (2) F1 female mice, i.p., increase in median life span (Example 8, Table I); details: three times per week

## CN(Cc1cnc2nc(N)nc(N)c2n1)c1ccc(C(=O)N[C@@H](CCC(=O)O)C(=O)O)cc1 [Methotrexate]
L1210 leukemia [1]; 6 mg/kg i.p.
  AST: 13.8 ± 1.2 days
  ILS: +105%
L1210 leukemia [1]; 9 mg/kg i.p.
  AST: 15.8 ± 1.7 days
  ILS: +135%
L1210 leukemia [1]; 12 mg/kg i.p.
  AST: 16.9 ± 1.5 days
  ILS: +149%
L1210 leukemia [1]; 18 mg/kg i.p.
  AST: 17.3 ± 1.8 days
  ILS: +158%
L1210 leukemia [1]; 24 mg/kg i.p.
  AST: 15.3 ± 2.1 days
  ILS: +127%
Ehrlich ascites; 6 mg/kg s.c. every 2 days × 5
  ILS (increased life span): 15.1%
Ehrlich ascites; 9 mg/kg s.c. every 2 days × 5
  ILS (increased life span): 20.9%
Ehrlich ascites; 12 mg/kg s.c. every 2 days × 5
  ILS (increased life span): 17.0%
Ehrlich ascites; against Ehrlich, s.c., q2d×5
  Maximum ILS: +19%
P815 ascites; 6 mg/kg s.c. every 2 days × 5
  ILS (increased life span): 75.0%
P815 ascites; 9 mg/kg s.c. every 2 days × 5
  ILS (increased life span): 100.3%
P815 ascites; 12 mg/kg s.c. every 2 days × 5
  ILS (increased life span): 109.1%
P815 ascites; against P815, s.c., q2d×5
  Maximum ILS: +103%
Carrier in tumor
  competition for carrier mechanism: compete for the same carrier mechanism
L1210 leukemia [2]; 0.75 mg/kg i.p.
  Increased life span: 46.0%
  Median life span: 9.9 ± 1.0 days
L1210 leukemia [2]; 1.5 mg/kg i.p.
  Increased life span: 86.5%
  Median life span: 12.7 ± 1.8 days
L1210 leukemia [2]; 3.0 mg/kg i.p.
  Increased life span: 152.8%
  Median life span: 17.5 ± 2.9 days
L1210 leukemia [2]; 6.0 mg/kg i.p.
  Increased life span: 169.0%
  Median life span: 18.3 ± 3.5 days
